Test system: NK cells
Test: IFN-gamma secretion of NK cells (Human IFN-y ELISA)
Assay type: cell-based
Conditions: IL-2 10 mg/L in typical medium without alloferon, 48 hours
Method: IFN-r is an indicator of the activity of NK cells, and it is considered as the secretion amount is higher, the cytotoxicity is higher and the differentiation ability increases.
To confirm this, the isolated NK cells were washed and then treated with 10 mg/L of IL-2 in a typical medium, further treated with alloferons 1 to 4 (0.1 to 100 ng/ml, or 100 mg/L) depending on the test group, and placed in a 24-well plate (1×10^5 cells/well) and reacted in an environment of 5% CO2 and 37° C. for 48 hours. IFN-y secreted from NK cells was measured in the culture medium in which the cells were cultured, using a Human IFN-y ELISA kit (BD Biosciences, San Diego, CA, USA). 100 μl of capture antibody diluted in coating buffer was added to each well of a 96-well plate for ELISA, then sealed and left overnight at 4° C. It was washed three times using wash buffer, and all remaining buffer was removed. 200 μl of assay diluent was added to each well and reacted at room temperature for 1 hour for blocking. It was washed again three times using wash buffer, and all remaining buffer was removed. 100 μl of each prepared IFN-y standard and culture supernatants were added, the plate was sealed, and the reaction was performed at room temperature for 2 hours. […] 50 μl of Stop solution was added to each well, and the absorbance was measured at 450 nm within 30 minutes.

## IL-2: recombinant human interleukin 2 (IL-2)
  IFN-r, Table 6: 1.02 µg/L

Source: patent publication US20250109381A1, “COMPOSITION FOR CULTRING NK CELLS, COMPRISING ALLOFERON, AND METHOD FOR CULTURING NK CELLS USING SAME” (NK MEDICS INC., priority 2022, published 2025)
